Source: article PMC6225322, “Development of Kinase Inhibitors via Metal-Catalyzed C–H Arylation of 8-Alkyl-thiazolo[5,4-f]-quinazolin-9-ones Designed by Fragment-Growing Studies” (Molecules : A Journal of Synthetic Chemistry and Natural …, 2018)

Protein sequences, listed by entry. Tags and fused reporters are not part of them.
UniProt Q00535, whole entry: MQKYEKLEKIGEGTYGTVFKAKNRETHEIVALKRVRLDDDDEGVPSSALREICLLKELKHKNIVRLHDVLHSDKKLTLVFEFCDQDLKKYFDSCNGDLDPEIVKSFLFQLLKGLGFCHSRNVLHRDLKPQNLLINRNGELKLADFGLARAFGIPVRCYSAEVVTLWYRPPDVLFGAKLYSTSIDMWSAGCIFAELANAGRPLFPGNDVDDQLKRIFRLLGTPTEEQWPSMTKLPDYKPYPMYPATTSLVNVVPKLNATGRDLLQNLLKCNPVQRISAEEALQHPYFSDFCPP

Target: T1, CDK5/p25 (Homo sapiens, UniProt Q00535)
T1 construct: made in house
Experiment: CDK5/p25 in vitro kinase assay (33P-ATP, histone H1)
Type: biochemical

COc1ccc2c(c1)[nH]c1c(C)nccc12 [Harmine, reference compound] was tested, and the pIC50 was < 5.00.

pIC50: −log10 of the molar value.
